According to ChEMBL document CHEMBL1145296, “Development of 6-substituted indolylquinolinones as potent Chek1 kinase inhibitors” (Bioorg Med Chem Lett, 2006):

Biological target: T1, Serine/threonine-protein kinase Chk1 (Homo sapiens, UniProt O14757)
T1 sequence (O14757 whole entry): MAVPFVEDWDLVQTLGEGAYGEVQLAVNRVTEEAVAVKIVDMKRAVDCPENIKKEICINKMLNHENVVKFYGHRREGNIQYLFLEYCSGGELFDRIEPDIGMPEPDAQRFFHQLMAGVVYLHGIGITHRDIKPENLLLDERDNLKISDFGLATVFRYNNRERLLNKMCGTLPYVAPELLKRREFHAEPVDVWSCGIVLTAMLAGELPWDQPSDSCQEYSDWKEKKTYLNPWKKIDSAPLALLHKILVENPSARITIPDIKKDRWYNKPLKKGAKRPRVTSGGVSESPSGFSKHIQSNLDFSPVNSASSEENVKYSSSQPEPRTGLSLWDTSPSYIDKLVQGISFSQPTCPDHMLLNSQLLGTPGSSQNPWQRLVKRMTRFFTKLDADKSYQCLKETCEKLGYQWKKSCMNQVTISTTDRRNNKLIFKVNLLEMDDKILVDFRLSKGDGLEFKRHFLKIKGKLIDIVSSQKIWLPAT
Experiment: Inhibition of human CHEK1

Compound | IC50
NCC1CCN(Cc2ccc3[nH]c(-c4cc5ccccc5[nH]c4=O)cc3c2)CC1 | 140 nM
O=c1[nH]c2ccc(-c3cn[nH]c3)cc2cc1-c1cc2cc(CN3CCCCC3)ccc2[nH]1 | 0.65 nM
